Test [1] is described as follows: Selectivity ratio of IC50 for recombinant rat DYRK1A kinase domain (1 to 499 residues) expressed in bacterial expression system to IC50 for recombinant human Pim1 expressed in bacterial expression system.
Test [2] can be described thus: Selectivity ratio of IC50 for porcine brain CK1delta/epsilon to IC50 for recombinant human Pim1 expressed in bacterial expression system.
Test [3] can be described thus: Selectivity ratio of IC50 for recombinant mouse CLK1 expressed in bacterial expression system to IC50 for recombinant human Pim1 expressed in bacterial expression system.
The species entered for test [4] is Homo sapiens. The test is described as follows: Selectivity ratio of IC50 for human CDK2/CyclinA to IC50 for recombinant human Pim1 expressed in bacterial expression system.
Test [5] is described as follows: Selectivity ratio of IC50 for porcine brain GSK-3alpha/beta to IC50 for recombinant human Pim1 expressed in bacterial expression system.
For test [6], the species on record is Homo sapiens. The test is described as follows: Selectivity ratio of IC50 for recombinant human CDK9/CyclinT expressed in baculovirus infected Sf9 insect cells to IC50 for recombinant human Pim1 expressed in bacterial expression system.
For test [7], the species on record is Homo sapiens. The test is described as follows: Selectivity ratio of IC50 for recombinant human haspin kinase domain (470 to 798 residues) expressed in bacterial expression system to IC50 for recombinant human Pim1 expressed in bacterial expression system.

Molecules are shown by their SMILES.

For `O=C(O)c1nc2ccccc2nc1Nc1cccc(N2CCOCC2)c1`, the Ratio IC50 in test [1], in test [2], in test [3], in test [4], in test [5] and in test [6] was over 10 throughout. The Ratio IC50 in test [7] is over 10.

Regarding `O=C(O)c1nc2ccccc2nc1Nc1cccc(O)c1`, the Ratio IC50 in test [1] was 3.5; in test [2] it was over 130; in test [3] it was over 130; in test [4], over 130; in test [5], over 130; in test [6] it was over 130. Moreover, the Ratio IC50 in test [7] is over 130.
